Target: T1, CYP1A2 (Homo sapiens, UniProt P05177)
T1 construct: 158 ul of human liver microsome (HLM) was added to all the wells; from tissue; host or cells: human liver microsomes
Assay: CYP Inhibition
Assay type: in vitro ADME
Settings: 3 μM

By UniProt entry, the sequences of proteins in these tests, tags left out.
UniProt P05177, whole entry: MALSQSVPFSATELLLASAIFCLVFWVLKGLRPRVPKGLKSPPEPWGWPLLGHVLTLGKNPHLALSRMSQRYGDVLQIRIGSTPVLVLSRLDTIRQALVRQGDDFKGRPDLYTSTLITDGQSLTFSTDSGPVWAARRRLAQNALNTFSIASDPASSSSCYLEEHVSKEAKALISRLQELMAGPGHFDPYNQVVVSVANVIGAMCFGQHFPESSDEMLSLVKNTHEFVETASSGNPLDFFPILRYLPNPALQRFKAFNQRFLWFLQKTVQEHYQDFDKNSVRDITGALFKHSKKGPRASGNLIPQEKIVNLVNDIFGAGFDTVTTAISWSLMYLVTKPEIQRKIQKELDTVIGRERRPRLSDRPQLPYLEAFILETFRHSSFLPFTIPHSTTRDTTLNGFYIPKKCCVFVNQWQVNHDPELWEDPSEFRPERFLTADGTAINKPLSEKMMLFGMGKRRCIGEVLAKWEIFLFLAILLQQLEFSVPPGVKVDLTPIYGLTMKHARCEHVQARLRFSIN

P450 1A2 % Inhibition, positive control: 92.7%
SMILES: O=c1cc(-c2ccccc2)oc2c1ccc1ccccc12 [α-Naphthoflavone, reference compound]
